The entries are a selection whose mix differs from that of the whole data set. Results with a measured potency or affinity are listed apart. The source made the active and inactive calls. The rule behind the calls is not given here.
Molecular target: Beta-2 adrenergic receptor (Homo sapiens) (UniProt P07550)
Assay: ADRB2 activation measured by internalization – cell-based, FAP fluorogen, flow cytometry, cherry pick 1, dose response (AID 588763)
Conditions: AM2.2-beta2AR cells, 90 min; at 33 µM (top of the series)

Structure (SMILES): CN(C)C(=O)c1cc([N+](=O)[O-])cc2c1-c1c(cc([N+](=O)[O-])cc1[N+](=O)[O-])C2=O
- activation (receptor internalization): inactive: 92.3%

Source: PubChem BioAssay AID588763 (NMMLSC, 2011)
